Reference: US20130237511A1, “Copper Ion Delivery Platform for Pharmaceutical Agents” (University System of Georgia, priority 2012, published 2013)
Read-outs that look alike come from different tables or passages of the source.

Test system: National Cancer Institute 60 cancer cell line panel
[1] = A549/ATCC (Non-Small Cell Lung)
[2] = NCI-H322M (Non-Small Cell Lung)

## CC(=O)OC1C(=O)C2(C)C(O)CC3OCC3(OC(C)=O)C2C(OC(=O)c2ccccc2)C2(O)CC(OC(=O)C(O)C(NC(=O)c3ccccc3)c3ccccc3)C(C)=C1C2(C)C.[Cu+2] (stereo not drawn) [Cu-Taxol]
A498 (Renal)
  Copper(II)-Taxol/Taxol ratio: 1
  CuTax/FeTax ratio: 0.01698
  logGI50: −8 Molar
A549/ATCC (Non- Small Lung Cancer)
  CuTax/FeTax ratio: 0.1175
[1]
  Copper(II)-Taxol/Taxol ratio: 0.9549
  logGI50: −8 Molar
ACHN (Renal)
  Copper(II)-Taxol/Taxol ratio: 0.4074
  CuTax/FeTax ratio: 0.1318
  logGI50: −6.41 Molar
Average of panel
  Copper(II)-Taxol/Taxol ratio: 0.6918
  CuTax/FeTax ratio: 0.06577
  logGI50: −7.748 Molar
BT-549 (Breast)
  Copper(II)-Taxol/Taxol ratio: 0.7943
  CuTax/FeTax ratio: 0.03236
  logGI50: −8 Molar
CAKI-1 (Renal)
  Copper(II)-Taxol/Taxol ratio: 0.1778
  CuTax/FeTax ratio: 0.01585
  logGI50: −7.25 Molar
CCRF-CEM (Leukemia)
  Copper(II)-Taxol/Taxol ratio: 1
  CuTax/FeTax ratio: 0.01148
  logGI50: −8 Molar
COLO205 (Colon)
  Copper(II)-Taxol/Taxol ratio: 1
  CuTax/FeTax ratio: 0.2291
  logGI50: −8 Molar
DU-145 (Prostate)
  Copper(II)-Taxol/Taxol ratio: 1
  CuTax/FeTax ratio: 0.166
  logGI50: −8 Molar
EKVX (Non- Small Lung Cancer)
  CuTax/FeTax ratio: 0.005129
EKVX (Non-Small Cell Lung)
  Copper(II)-Taxol/Taxol ratio: 0.0912
  logGI50: −8 Molar
HCC-2998 (Colon)
  Copper(II)-Taxol/Taxol ratio: 0.9772
  CuTax/FeTax ratio: 0.06607
  logGI50: −8 Molar
HCT-15 (Colon)
  Copper(II)-Taxol/Taxol ratio: 1.0232
  CuTax/FeTax ratio: 0.1259
  logGI50: −6.53 Molar
HCT-116 (Colon)
  Copper(II)-Taxol/Taxol ratio: 1
  CuTax/FeTax ratio: 0.257
  logGI50: −8 Molar
HL-60(TB) (Leukemia)
  Copper(II)-Taxol/Taxol ratio: 1
  logGI50: −8 Molar
HOP-62 (Non- Small Lung Cancer)
  CuTax/FeTax ratio: 0.0008128
HOP-62 (Non-Small Cell Lung)
  Copper(II)-Taxol/Taxol ratio: 0.4168
  logGI50: −8 Molar
HOP-92 (Non- Small Lung Cancer)
  CuTax/FeTax ratio: 0.4898
HOP-92 (Non-Small Cell Lung)
  Copper(II)-Taxol/Taxol ratio: 338.84
  logGI50: −5.29 Molar
HS578T (Breast)
  Copper(II)-Taxol/Taxol ratio: 1
  CuTax/FeTax ratio: 0.07079
  logGI50: −8 Molar
IGROV1 (Ovarian)
  Copper(II)-Taxol/Taxol ratio: 0.5495
  CuTax/FeTax ratio: 0.04786
  logGI50: −8 Molar
K-562 (Leukemia)
  Copper(II)-Taxol/Taxol ratio: 0.7943
  CuTax/FeTax ratio: 0.1023
  logGI50: −8 Molar
KM12 (Colon)
  Copper(II)-Taxol/Taxol ratio: 1
  CuTax/FeTax ratio: 0.1585
  logGI50: −8 Molar
LOXIMVI (Melanoma)
  Copper(II)-Taxol/Taxol ratio: 1
  CuTax/FeTax ratio: 0.09333
  logGI50: −8 Molar
M14 (Melanoma)
  Copper(II)-Taxol/Taxol ratio: 0.9772
  CuTax/FeTax ratio: 0.1585
  logGI50: −8 Molar
MCF7 (Breast)
  Copper(II)-Taxol/Taxol ratio: 1
  CuTax/FeTax ratio: 0.3162
  logGI50: −8 Molar
MDA-MB-231/ATCC (Breast)
  Copper(II)-Taxol/Taxol ratio: 1
  CuTax/FeTax ratio: 0.0138
  logGI50: −8 Molar
MDA-MB-435 (Melanoma)
  Copper(II)-Taxol/Taxol ratio: 0.7762
  CuTax/FeTax ratio: 0.5623
  logGI50: −8 Molar
MDA-MB-468 (Breast)
  Copper(II)-Taxol/Taxol ratio: 1
  CuTax/FeTax ratio: 0.2754
  logGI50: −8 Molar
MOLT-4 (Leukemia)
  Copper(II)-Taxol/Taxol ratio: 0.6309
  CuTax/FeTax ratio: 0.0007244
  logGI50: −8 Molar
NCI 60 cell line panel, 10^-4 to 10^-8 M
  medicinal / anti-cancer activity in comparison: superior to the pure taxol molecule
NCI-H23 (Non- Small Lung Cancer)
  CuTax/FeTax ratio: 0.06166
NCI-H23 (Non-Small Cell Lung)
  Copper(II)-Taxol/Taxol ratio: 0.8709
  logGI50: −8 Molar
NCI-H226 (Non- Small Lung Cancer)
  CuTax/FeTax ratio: 15.85
NCI-H226 (Non-Small Cell Lung)
  Copper(II)-Taxol/Taxol ratio: 12.302
  logGI50: −4.92 Molar
NCI-H322M (Non- Small Lung Cancer)
  CuTax/FeTax ratio: 0.0302
[2]
  Copper(II)-Taxol/Taxol ratio: 1
  logGI50: −8 Molar
NCI-H460 (Non- Small Lung Cancer)
  CuTax/FeTax ratio: 0.1995
NCI-H460 (Non-Small Cell Lung)
  Copper(II)-Taxol/Taxol ratio: 1
  logGI50: −8 Molar
NCI-H522 (Non- Small Lung Cancer)
  CuTax/FeTax ratio: 0.257
NCI-H522 (Non-Small Cell Lung)
  Copper(II)-Taxol/Taxol ratio: 1
  logGI50: −8 Molar
NCI/ADR-RES (Ovarian)
  Copper(II)-Taxol/Taxol ratio: 0.7244
  CuTax/FeTax ratio: 0.07244
  logGI50: −5.86 Molar
OVCAR-3 (Ovarian)
  Copper(II)-Taxol/Taxol ratio: 0.7079
  CuTax/FeTax ratio: 0.2291
  logGI50: −8 Molar
OVCAR-4 (Ovarian)
  Copper(II)-Taxol/Taxol ratio: 0.0067
  CuTax/FeTax ratio: 0.0138
  logGI50: −8 Molar
OVCAR-5 (Ovarian)
  Copper(II)-Taxol/Taxol ratio: 0.6607
  CuTax/FeTax ratio: 0.01148
  logGI50: −8 Molar
OVCAR-8 (Ovarian)
  Copper(II)-Taxol/Taxol ratio: 1
  CuTax/FeTax ratio: 0.138
  logGI50: −8 Molar
RPMI-8226 (Leukemia)
  Copper(II)-Taxol/Taxol ratio: 1
  CuTax/FeTax ratio: 0.1349
  logGI50: −8 Molar
RXF393 (Renal)
  Copper(II)-Taxol/Taxol ratio: 1
  CuTax/FeTax ratio: 0.1047
  logGI50: −8 Molar
SF-268 (CNS)
  Copper(II)-Taxol/Taxol ratio: 0.912
  CuTax/FeTax ratio: 0.06026
  logGI50: −8 Molar
SF-295 (CNS)
  Copper(II)-Taxol/Taxol ratio: 0.6760
  CuTax/FeTax ratio: 0.1202
  logGI50: −8 Molar
SF-539 (CNS)
  Copper(II)-Taxol/Taxol ratio: 1
  CuTax/FeTax ratio: 0.1905
  logGI50: −8 Molar
SK-MEL-5 (Melanoma)
  Copper(II)-Taxol/Taxol ratio: 1
  CuTax/FeTax ratio: 0.1479
  logGI50: −8 Molar
SK-MEL-28 (Melanoma)
  Copper(II)-Taxol/Taxol ratio: 0.01148
  CuTax/FeTax ratio: 0.0007586
  logGI50: −8 Molar
SK-OV-3 (Ovarian)
  Copper(II)-Taxol/Taxol ratio: 0.8912
  CuTax/FeTax ratio: 0.07079
  logGI50: −8 Molar
SN12C (Renal)
  Copper(II)-Taxol/Taxol ratio: 0.1585
  CuTax/FeTax ratio: 0.04571
  logGI50: −8 Molar
SNB-19 (CNS)
  Copper(II)-Taxol/Taxol ratio: 0.8709
  CuTax/FeTax ratio: 0.01862
  logGI50: −8 Molar
SNB-75 (CNS)
  Copper(II)-Taxol/Taxol ratio: 1
  CuTax/FeTax ratio: 0.4365
  logGI50: −8 Molar
SR (Leukemia)
  Copper(II)-Taxol/Taxol ratio: 0.3162
  CuTax/FeTax ratio: 0.05012
  logGI50: −8 Molar
SW-620 (Colon)
  Copper(II)-Taxol/Taxol ratio: 1
  CuTax/FeTax ratio: 0.1514
  logGI50: −8 Molar
TK-10 (Renal)
  Copper(II)-Taxol/Taxol ratio: 0.3467
  CuTax/FeTax ratio: 0.04898
  logGI50: −7.49 Molar
U251 (CNS)
  Copper(II)-Taxol/Taxol ratio: 1
  CuTax/FeTax ratio: 0.1549
  logGI50: −8 Molar
UACC-62 (Melanoma)
  Copper(II)-Taxol/Taxol ratio: 0.7413
  CuTax/FeTax ratio: 0.1148
  logGI50: −8 Molar
UACC-257 (Melanoma)
  Copper(II)-Taxol/Taxol ratio: 0.04365
  CuTax/FeTax ratio: 0.0005495
  logGI50: −8 Molar
UO-31 (Renal)
  Copper(II)-Taxol/Taxol ratio: 0.6026
  CuTax/FeTax ratio: 0.04571
  logGI50: −6.65 Molar
